Measured values: the DeepSol protein solubility set

Test: soluble on expression in E. coli; label from the status in PepcDB or PDB records

Row | Sequence | soluble on expression in E. coli
1 | MGHHHHHHSHMEQANPLRPDGESKGGVLAHLERLETQVSRSRKQSEELQSVQAQEGALGTKIHKLRRLRDELRAVVRHRRASVKACIANVEPNQTVEINEQEALEEKLENVKAILQAYHFTGLSGKLTSRGVCVCISTAFEGNLLDSYFVDLVIQKPLRIHHHSVPVFIPLEEIAAKYLQTNIQHFLFSLCEYLNAYSGRKYQADRLQSDFAALLTGPLQRNPLCNLLSFTYKLDPGGQSFPFCARLLYKDLTATLPTDVTVTCQGVEVLSTSWEEQRASHETLFCTKPLHQVFASFTRKGEKLDMSLVS | not soluble
2 | MSQSKHTEARELMYSGALLFFSHGQQNSAADLSMLVLESLEKAEVEVADELLENLAKVFSLMDPNSPERVTFVSRALKWSSGGSGKLGHPRLHQLLALTLWKEQNYCESRYHFLHSADGEGCANMLVEYSTSRGFRSEVDMFVAQAVLQFLCLKNKSSASVVFTTYTQKHPSIEDGPPFVEPLLNFIWFLLLAVDGGKLTVFTVLCEQYQPSLRRDPMYNEYLDRIGQLFFGVPPKQTSSYGGLLGNLLTSLMGSSEQEDGEESPSDGSPIELD | not soluble
